{
  "source": "patent US11760733B2",
  "about": "“Small molecule regulators of mitochondrial fusion and methods of use thereof” (Washington University, priority 2017, dated 2023)",
  "tested_on": "Mfn1/Mfn2 double null MEFs",
  "assay": "Mitochondrial elongation in Mfn1/Mfn2 double null MEFs",
  "format": "cell-based, mouse",
  "data": [
    {"smiles": "CC(Sc1nnc(C2CC2)n1-c1ccccc1)C(=O)Nc1sc2c(c1C(N)=O)CCC2", "note": "(stereo not shown) [compound B, 2-{2-[(5-cyclopropyl-4-phenyl-4H-1,2,4-triazol-3-yl)sulfanyl]propanamido}-4H,5H,6H-cyclopenta[b]thiophene-3-carboxamide]", "values": [
      {"measurement": "mitochondrial elongation in absence of both mitofusins", "result": "did not occur"}
    ]}
  ]
}
